Measurements from patent publication US20080221144A1, “Controlled Release Formulations” (Innovative Drug Delivery Systems, Inc., priority 2004, published 2008).

Details: metabolic ratio, comparison of oral, intravenous, intranasal

Structure (SMILES): CN1CC[C@]23c4c5ccc(O)c4O[C@H]2[C@@H](O)C=C[C@H]3[C@H]1C5.O=S(=O)(O)O [10 mg IV + IN Placebo, morphine sulphate]
- Formation of M-3-G from morphine (rank among routes): least
- Formation of M-6-G from morphine (rank among routes): least
